Our source for the IC50 and inhibition values is patent publication US8329950B2, “Process for preparation of trans 4-(3,4-Dichlorophenyl)-1,2,3,4-tetrahydro-1Napthalenamine” (Sunovion Pharmaceuticals Inc., priority 2005, dated 2012).

Amino acid sequences for entries named in this document (tags omitted).
UniProt P31652, whole entry: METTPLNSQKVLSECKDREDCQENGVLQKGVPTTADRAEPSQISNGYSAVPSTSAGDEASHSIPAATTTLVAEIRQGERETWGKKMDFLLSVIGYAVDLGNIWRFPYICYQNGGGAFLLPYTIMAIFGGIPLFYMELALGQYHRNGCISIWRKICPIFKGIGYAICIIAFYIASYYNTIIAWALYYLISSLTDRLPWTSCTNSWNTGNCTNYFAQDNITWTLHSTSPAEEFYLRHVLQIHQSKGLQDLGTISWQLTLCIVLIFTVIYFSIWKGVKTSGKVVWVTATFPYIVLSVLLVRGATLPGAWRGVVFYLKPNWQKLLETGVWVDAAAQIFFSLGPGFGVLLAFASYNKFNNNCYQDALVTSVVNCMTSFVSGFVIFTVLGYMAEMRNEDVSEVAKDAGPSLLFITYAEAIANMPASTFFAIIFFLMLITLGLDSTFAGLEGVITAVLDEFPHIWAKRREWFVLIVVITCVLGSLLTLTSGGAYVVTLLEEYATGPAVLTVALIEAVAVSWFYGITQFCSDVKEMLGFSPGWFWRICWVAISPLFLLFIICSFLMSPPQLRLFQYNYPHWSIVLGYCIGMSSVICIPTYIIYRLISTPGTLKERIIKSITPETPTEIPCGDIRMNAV

The experiment deals with T1, functional uptake of serotonin (5-HT) (Rattus norvegicus, UniProt P31652).
T1 construct: synaptosomes isolated in a 0.32 M sucrose buffer from a male Wistar rat cortex; from tissue; host or cells: male Wistar rat cortex (whole brain) synaptosomes
Kind of experiment: Serotonin functional uptake assay in rat synaptosomes. The format is biochemical.

Turning to `N[C@@H]1CC[C@@H](c2ccc(Cl)c(Cl)c2)c2ccccc21` (relative stereo) [P + Q, trans 4-(3,4-dichlorophenyl)-1,2,3,4-tetrahydro-1-napthalenamine], for the setting “Table 6, rat synaptosomes”, the midpoint of inhibition, the IC50, lay at 41 nM.
Regarding `CNCCCC1c2ccccc2C=Cc2ccccc21` [protriptyline], the inhibition at 10 µM (read-out: inhibition of 5-HT uptake, Table 5, tested initially at 10 μM) is less than 50%.

As usually defined, the IC50 is the point on the concentration scale where inhibition reaches its midpoint. Broadly, the inhibition is the percentage by which the read-out fell short of the control.
